According to PubChem BioAssay AID2755 (The Scripps Research Institute Molecular Screening Center, 2010):

Biological target: beta-lactamase TEM-1 (Escherichia coli) (UniProt Q5J463)
Assay: PubChem AID 2755
Conditions: TEM-1 enzyme, epi-absorbance substrate hydrolysis

- IC50: 5.86 µM
SMILES: CCN1C(=O)c2cccc3c(N)ccc(c23)C1=O
